This is an account of results in published antibiotic growth screens (doi:10.1038/s41589-023-01349-8).

Some of the results follow.

The subject of the assay is A. baumannii ATCC 17978. The assay can be described thus: relative growth (fraction of control); higher = less inhibition. To be noted: 50 µM.
`O=C(NCc1ccccc1)[C@@H]1c2ccccc2C(=O)N(CC23CC4CC(CC(C4)C2)C3)[C@H]1c1ccc(CO)cc1` showed a relative growth of 1.15. For `CC[C@@]1(O)C(=O)OCc2c1cc1n(c2=O)Cc2cc3cc(O)ccc3nc2-1`, the relative growth amounted to 1.08. Under `CNC(=O)C[C@@H]1CC[C@@H]2[C@H](COC[C@@H](O)CN2C(=O)Nc2ccc3c(c2)OCO3)O1` stands 0.952; under `C[C@@H](NC(=O)C[C@@H]1CC[C@@H](NC(=O)CN2CCOCC2)[C@H](CO)O1)c1ccccc1`, 1.02. Under `O=C(O)/C=C/c1ccc(O[C@@H]2O[C@H](CO)[C@@H](O)[C@H](O)[C@H]2O)cc1` stands 1.11.

Turning to `C[C@@H]1CCCCO[C@@H](CN(C)Cc2ccc3c(c2)OCO3)[C@H](C)CN([C@H](C)CO)C(=O)c2cc(NS(=O)(=O)c3ccc(Cl)cc3)ccc2O1`, the relative growth stood at 1.22. Under `C=CCn1c(=O)c2c(OC)ccnc2n(C)c1=O` stands 0.962; under `CC(C)[C@@H]1CC[C@@H](C)C[C@H]1O`, 0.971. Under `COc1ccc(S(=O)(=O)N(C)C[C@@H]2Oc3c(NC(=O)Nc4cccc5ccccc45)cccc3C(=O)N([C@H](C)CO)C[C@@H]2C)cc1` stands 1.02; under `NC1=NC(=O)[C@@H]2N=C(Br)N([C@H]3O[C@H]4COP(=O)(O)O[C@@H]4[C@@H]3O)[C@H]2N1`, 0.936; under `COCCNC(=O)C[C@H]1C[C@H]2c3cc(NC(=O)COC)ccc3O[C@H]2[C@@H](CO)O1`, 1.05. Under `NCC[C@H]1CC[C@H](NC(=O)C2CCCCC2)[C@H](CO)O1` stands 0.857; under `CC(=O)OC/C=C(C)/C=C/C=C(C)/C=C/C1=C(C)CCCC1(C)C`, 0.965. In turn, `NS(=O)(=O)c1cc2c(cc1Cl)N=C(CSCc1ccccc1)NS2(=O)=O` showed a relative growth of 0.986. With `Cc1ccc(S(=O)(=O)N[C@@H]2CC[C@@H](CC(=O)NCc3ccc(Cl)c(Cl)c3)O[C@H]2CO)cc1`, the relative growth was 0.995. Under `O=C(C[C@H]1C=C[C@H](NC(=O)c2cccnc2)[C@H](CO)O1)NCc1ccncn1` stands 0.909; under `C[C@H]1C/C(=C\N(C)C)C(=O)C1=O`, 0.803.

The molecule `CCC[C@H](N[C@@H](C)C(=O)N1[C@H](C(=O)O)C[C@@H]2CCCC[C@@H]21)C(=O)O` displayed a relative growth of 1.06.

Consider `C[C@@H]1CN([C@H](C)CO)S(=O)(=O)c2ccc(C#CC(C)(C)O)cc2O[C@@H]1CN(C)C(=O)C1CCCCC1`, for which the relative growth is 0.901.

The molecule `CCC[C@@H]1C[C@@H](C(=O)N[C@H]([C@H]2O[C@H](SC)[C@H](O)[C@@H](O)[C@H]2O)[C@H](C)O)N(C)C1.Cl` yielded a relative growth of 0.862. Under `NC(=S)c1cnc(-c2ccncc2)nc1N` stands 0.934; under `COCC(=O)N(C)C[C@H]1Oc2cc(C#CCN(C)C)ccc2S(=O)(=O)N([C@H](C)CO)C[C@H]1C`, 1.05.
